Results published in patent publication US10927075B2, “Compositions and methods relating to the treatment of cancer, autoimmune disease, and neurodegenerative disease” (THE JACKSON LABORATORY, priority 2014, dated 2021).

Details: single and multiple dose

| SMILES | side effect |
| --- | --- |
| CC(=O)Nc1ccc(/C=C/c2ccc(NC(=S)NC(C)C)cc2S(=O)(=O)O)c(S(=O)(=O)O)c1 [C-1523, (E)-5-acetamido-2-(4-(3-isopropylthioureido)-2-sulfonatostyryl)benzenesulfonate] | some B-cell reduction being the only (and predicted) side effect |
| CC(=O)Nc1ccc(/C=C/c2ccc(NC(=S)NC(C)C)cc2S(N)(=O)=O)c(S(N)(=O)=O)c1 [C-1523-1a, (E)-N-(4-(4-(3-isopropylthioureido)-2-sulfamoylstyryl)-3-sulfamoylphenyl)acetamide] | some B-cell reduction being the only (and predicted) side effect |
